Experimental data as given in patent publication US8946205B2, “1,2,4-triazolo[4,3-a]pyridine derivatives and their use as positive allosteric modulators of mGluR2 receptors” (Janssen Pharmaceuticals, Inc., priority 2009, dated 2015).

Protein sequences, listed by entry. Tags and fused reporters are not part of them. Residues count along the entry.
UniProt Q14416, 19-872 limits assumed: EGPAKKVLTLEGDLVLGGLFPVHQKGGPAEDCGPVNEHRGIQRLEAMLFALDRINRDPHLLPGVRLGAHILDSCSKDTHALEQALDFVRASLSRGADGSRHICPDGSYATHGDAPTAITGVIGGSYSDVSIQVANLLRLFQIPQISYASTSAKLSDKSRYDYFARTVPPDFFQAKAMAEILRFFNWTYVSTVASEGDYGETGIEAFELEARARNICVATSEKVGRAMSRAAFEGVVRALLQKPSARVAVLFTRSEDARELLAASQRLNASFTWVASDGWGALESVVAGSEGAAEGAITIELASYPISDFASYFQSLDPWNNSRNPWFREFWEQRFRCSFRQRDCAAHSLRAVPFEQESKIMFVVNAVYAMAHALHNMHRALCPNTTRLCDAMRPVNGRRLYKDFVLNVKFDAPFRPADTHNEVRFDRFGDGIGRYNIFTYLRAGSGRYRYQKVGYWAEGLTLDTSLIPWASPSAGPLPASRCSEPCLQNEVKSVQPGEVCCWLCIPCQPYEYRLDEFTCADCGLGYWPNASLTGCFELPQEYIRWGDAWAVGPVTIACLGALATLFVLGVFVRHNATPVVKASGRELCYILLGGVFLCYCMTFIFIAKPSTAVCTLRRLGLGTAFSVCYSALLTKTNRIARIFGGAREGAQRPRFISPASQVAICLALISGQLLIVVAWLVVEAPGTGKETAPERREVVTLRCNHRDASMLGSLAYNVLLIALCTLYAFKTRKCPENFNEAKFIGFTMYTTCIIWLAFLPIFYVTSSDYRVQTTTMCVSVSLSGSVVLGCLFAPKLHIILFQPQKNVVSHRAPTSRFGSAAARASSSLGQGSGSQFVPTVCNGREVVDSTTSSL

biological target: human mGluR2 receptor (Homo sapiens, UniProt Q14416); assay: [35S]GTPγS binding assay (PAM assay, membranes from CHO cells transfected with the human mGluR2 receptor); details: in presence of glutamate at EC20; pEC50 = -log EC50 (mol/L)
Experimental: The [^35S]GTPγS binding assay is a functional membrane-based assay used to study G-protein coupled receptor (GPCR) function whereby incorporation of a non-hydrolysable form of GTP, [^35S]GTPγS (guanosine 5′-triphosphate, labelled with […] ^35S), is measured. The G-protein α subunit catalyzes the exchange of guanosine 5′-diphosphate (GDP) by guanosine triphosphate (GTP) and on activation of the GPCR by an agonist, [^35S]GTPγS, becomes incorporated and cannot be cleaved to continue the exchange cycle (Harper (1998) Current Protocols in Pharmacology 2.6.1-10, John Wiley & Sons, Inc.). […] Here we describe the use of the [^35S]GTPγS binding assay using membranes from cells transfected with the human mGluR2 receptor and adapted from Schaffhauser et al. ((2003) Molecular Pharmacology 4:798-810) for the detection of the positive allosteric modulation (PAM) properties of the compounds of this invention.
CHO-cells were cultured to pre-confluence and stimulated with 5 mM butyrate for 24 h, prior to washing in PBS, and then collected by scraping in homogenisation buffer (50 mM Tris-HCl buffer, pH 7.4, 4° C.). Cell lysates were homogenized briefly using an ultra-turrax homogenizer. The homogenate was centrifuged at 16,000 RPM (Sorvall RC-5C plus rotor SS-34) for 10 minutes and the supernatant discarded. The pellet was resuspended in 5 mM Tris-HCl, pH 7.4 and centrifuged again (18,000 RPM, 20 min, 4° C.). The final pellet was resuspended in 50 mM Tris-HCl, pH 7.4 and stored at −80° C. in appropriate aliquots before use. Protein concentration was determined by the Bradford method (Bio-Rad, USA) with bovine serum albumin as standard.
Measurement of mGluR2 positive allosteric modulatory activity of test compounds was performed as follows. Test compounds and glutamate were diluted in assay buffer containing 10 mM HEPES acid, 10 mM HEPES salt, pH 7.4, 100 mM NaCl, 3 mM MgCl2 and 10 μM GDP. Human mGlu2 receptor-containing membranes were thawed on ice and diluted in assay buffer supplemented with 14 μg/ml saponin. Membranes were pre-incubated with compound alone or together with a predefined (˜EC20) concentration of glutamate (PAM assay) for 30 min at 30° C. After addition of [^35S]GTPγS (f.c. 0.1 nM) microplates were shaken briefly and further incubated to allow [^35S]GTPγS incorporation on activation (30 minutes, 30° C.). Final assay mixtures contained 7 μg of membrane protein in 10 mM HEPES acid, 10 mM HEPES salt, pH 7.4, 100 mM NaCl, 3 mM MgCl2,10 μM GDP and 10 μg/ml saponin. Total reaction volume was 200 μl. Reactions were terminated by rapid filtration through Unifilter-96 GF/B filter plates (Packard, Meriden, Conn.) using a 96-well Packard filtermate harvester. Filters were washed 6 times with ice-cold 10 mM NaH2PO4/10 mM Na2HPO4, pH 7.4. Filters were then air-dried, and 40 μl of liquid scintillation cocktail (Microscint-O) was added to each well. Membrane-bound radioactivity was counted in a Microplate Scintillation and Luminescence Counter from Packard.
The concentration-response curves of representative compounds of the present invention—obtained in the presence of EC20 of mGluR2 agonist glutamate to determine positive allosteric modulation (PAM)—were generated using the Lexis software interface (developed at J&J). Data were calculated as % of the control glutamate response, defined as the maximal response that is generated upon addition of glutamate alone. Sigmoid concentration-response curves plotting these percentages versus the log concentration of the test compound were analyzed using non-linear regression analysis. The concentration producing half-maximal effect is then calculated as EC50. The pEC50 values below are calculated as the −log EC50 (wherein EC50 is expressed in mol/L). […]

Structure (SMILES) | GTPγS-hR2 PAM pEC50
Cc1cc(N2CCOc3cc(-c4ccn5c(CC6CC6)nnc5c4C(F)(F)F)ccc32)ccn1 | 7.50
FC(F)(F)c1c(-c2ccc3c(c2)OCCN3c2cccnc2)ccn2c(CC3CC3)nnc12 | 7.85
CCOCc1nnc2c(Cl)c(-c3ccc4c(c3)OCCN4c3ccccn3)ccn12 | 6.48
FC(F)(F)c1c(-c2ccc3c(c2)OCCN3c2ccncc2)ccn2c(CC3CC3)nnc12 | 7.50
Clc1c(-c2ccc3c(c2)OCCN3c2ccccn2)ccn2c(CC3CC3)nnc12 | 6.86
CCOCc1nnc2c(Cl)c(-c3ccc4c(c3)OCCN4c3ncccn3)ccn12 | 6.13

The next lines start with the values.

GTPγS-hR2 PAM pEC50 | Structure (SMILES)
7.18 | Clc1c(-c2ccc3c(c2)OCCN3c2cccnc2)ccn2c(CC3CC3)nnc12
7.92 | Cc1ccc(N2CCOc3cc(-c4ccn5c(CC6CC6)nnc5c4Cl)ccc32)cn1
6.45 | Clc1c(-c2ccc3c(cnn3Cc3cccnc3)c2)ccn2c(CC3CC3)nnc12
6.82 | Fc1ccc(-n2ccc3cc(-c4ccn5c(CC6CC6)nnc5c4Cl)cnc32)cc1
